Test results: the supplement of paper PMC12532568
Structures can show the parent of a compound that is named as a salt. This is a selection; strong and weak results do not stand in their true shares.

Tested on: Danio rerio larvae Tg(actc1b:ZsGreen-LC3), 3 dpf
Assay: LC3 puncta relative area vs vehicle, without NH4Cl (log2 fold change); higher = more autophagosomes
Conditions: 10 µM; treatment time 16 h; NH4Cl: none
Protocol: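 Transgenic Tg(actc1b:ZsGreen-map1lc3) zebrafish larvae (2 dpf) were treated for 16 h with Tocris library compounds at 10 µM (n = 12 larvae per compound). Skeletal-muscle LC3 puncta area relative to body area was measured by high-content confocal imaging before and after 4 h of 100 mM NH4Cl (autophagic flux), normalised to vehicle (DMSO), and reported as log2 fold change.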

| Structure (SMILES) | LC3 puncta (log2) |
| --- | --- |
| N/C(=N/CCc1ccc(I)cc1)SCCCc1cnc[nH]1 [Iodophenpropit dihydrobromide] | 0.402 |
